Test results as given in patent publication US20230151069A1, “Cyclic Peptides” (LIFEARC, priority 2020, published 2023).
Where two headings read alike, the source gives them in different places.

Legend:
Bapineuzumab = assay: Cyclic peptide binding ELISA with comparator antibody Bapineuzumab
Experimental: (§1) • 1. […] Incubate at 4° C. overnight • 3. Wash the plate (NUNC 384 program) • 4. […] Incubate at RT for 1 hour • 6. Wash the plate (NUNC 384 program) • 7. […] Incubate at 4° C. overnight • 9. Wash the plate (NUNC 384 program) • 10. […] Transfer 30 μL/well onto the assay plate • 12. Incubate at 37° C. for 1 hour • 13. Wash the plate (NUNC 384 program) • 14. […] Incubate at 37° C. for 1 hour 16. Wash the plate (NUNC 384 program) 17. […] Incubate at RT for 10 min in the dark 19.
(§2) Binding of the TAP01 antibody has been assessed to these thioacetal bridged cyclic peptide variants by ELISA (FIGS. 20-22 and Table 5). Binding to comparators antibodies was also assessed.
(§3) Binding of the TAP01 antibody has been assessed to these thioacetal bridged cyclic peptide variants and to cyclic peptide 3, 12, cyclic peptide 2, 10, cyclic peptide 2, 12, and cyclic peptide 2, 13 by ELISA (FIG. 25, Table 7). Binding to comparator antibodies was also assessed (FIG. 26).

TAP01 antibody = assay: Proline mutated peptide binding to TAP01 antibody using Biacore T200; set-up: species or system mouse; conditions: Biacore T200, FIG. 23
From the text: To determine the mechanism of action of the amyloid peptides to the TAP01 antibody, five peptides whereby proline residues substituted the actual amino acids found in the peptide (Table 8) were generated and binding of these peptides to the TAP01 antibody was investigated (FIG. 23).

TAP01 (MoG1K) antibody = assay: Thioacetal bridged cyclic peptide binding ELISA with TAP01 antibody; set-up: species or system mouse
Experimental: as §1
The 1-14 thioacetal bridged cyclic peptide assessed in the above experiments has cysteine residues at positions 3 and 12 for the thioacetal bridge to constrain the peptide. In order to assess the role positioning the cysteine residues at positions 3 and 12 has for binding of the TAP01 antibody, additional peptides were generated with cysteine residues at different positions within the peptide sequence (Table 4).
as §2, §3

[1] = TAP01 (MoG1K), FIG. 25, unit inferred, read-out: calculated EC50 value
[2] = TAP01 (MoG1K) binding to thioacetal bridged cyclic peptide variants, Table 5, read-out: EC50
[3] = TAP01 (MoG1K) binding to thioacetal bridged cyclic peptide variants, Table 7, read-out: EC50

| EC50 (TAP01 (MoG1K) antibody; [2]) [nM] | Compound | binding to comparator antibody Bapineuzumab (Bapineuzumab; FIGS. 7, 22, 26, 34) | also measured |
| --- | --- | --- | --- |
| – | DACFRHDSGYEVCH-Biotin [Peptide 3, 13] | no binding | – |
| – | PAEFRHDSGYEVHH (Residue 1 (D to P)) | – | binding to TAP01 antibody (TAP01 antibody): bind in a dose dependant manner |
| – | CC(C)[C@H](NC(=O)[C@@H]1CSCSC[C@H](N)C(=O)N[C@@H](C)C(=O)N[C@@H](CCC(=O)O)C(=O)N[C@@H](Cc2ccccc2)C(=O)N[C@@H](CCCNC(=N)N)C(=O)N[C@@H](Cc2c[nH]cn2)C(=O)N[C@@H](CC(=O)O)C(=O)N[C@@H](CO)C(=O)NCC(=O)N[C@@H](Cc2ccc(O)cc2)C(=O)N1)C(=O)N[C@@H](Cc1c[nH]cn1)C(=O)N[C@@H](Cc1c[nH]cn1)C(=O)O [Peptide 1, 11] | Binding to the comparator antibody Bapineuzumab was seen | EC50 (TAP01 (MoG1K) antibody; [1]): 111 nM |
| – | CC(C)[C@@H]1NC(=O)[C@H](CCC(=O)O)NC(=O)[C@H](Cc2ccc(O)cc2)NC(=O)CNC(=O)[C@H](CO)NC(=O)[C@H](CC(=O)O)NC(=O)[C@H](Cc2c[nH]cn2)NC(=O)[C@H](CCCNC(=N)N)NC(=O)[C@H](Cc2ccccc2)NC(=O)[C@H](CCC(=O)O)NC(=O)[C@H](C)NC(=O)[C@@H](N)CSCSC[C@@H](C(=O)N[C@@H](Cc2c[nH]cn2)C(=O)O)NC1=O [Peptide 1, 13] | Binding to the comparator antibody Bapineuzumab was seen | EC50 (TAP01 (MoG1K) antibody; [1]): 3.5 nM |
| 261 | CC(C)[C@H](NC(=O)[C@@H]1CSCSC[C@H](NC(=O)[C@@H](N)CC(=O)O)C(=O)N[C@@H](CCC(=O)O)C(=O)N[C@@H](Cc2ccccc2)C(=O)N[C@@H](CCCNC(=N)N)C(=O)N[C@@H](Cc2c[nH]cn2)C(=O)N[C@@H](CC(=O)O)C(=O)N[C@@H](CO)C(=O)NCC(=O)N[C@@H](Cc2ccc(O)cc2)C(=O)N1)C(=O)N[C@@H](Cc1c[nH]cn1)C(=O)N[C@@H](Cc1c[nH]cn1)C(=O)O [2, 11] | – | – |
| – | CC(C)[C@H](NC(=O)[C@@H]1CSCSC[C@H](N)C(=O)N[C@@H](C)C(=O)N[C@@H](CCC(=O)O)C(=O)N[C@@H](Cc2ccccc2)C(=O)N[C@@H](CCCNC(=N)N)C(=O)N[C@@H](Cc2c[nH]cn2)C(=O)N[C@@H](CC(=O)O)C(=O)N[C@@H](CO)C(=O)NCC(=O)N[C@@H](Cc2ccc(O)cc2)C(=O)N1)C(=O)N[C@@H](Cc1c[nH]cn1)C(=O)N[C@@H](Cc1c[nH]cn1)C(=O)O [1, 11] | – | EC50 (TAP01 (MoG1K) antibody; [3]): 111 nM |
| – | DPEFRHDSGYEVHH (Residue 2 (A to P)) | – | binding to TAP01 antibody (TAP01 antibody): no binding observed |
| – | C[C@@H]1NC(=O)[C@@H](N)CSCSC[C@@H](C(=O)N[C@@H](Cc2c[nH]cn2)C(=O)N[C@@H](Cc2c[nH]cn2)C(=O)O)NC(=O)[C@H](CCC(=O)O)NC(=O)[C@H](Cc2ccc(O)cc2)NC(=O)CNC(=O)[C@H](CO)NC(=O)[C@H](CC(=O)O)NC(=O)[C@H](Cc2c[nH]cn2)NC(=O)[C@H](CCCNC(=N)N)NC(=O)[C@H](Cc2ccccc2)NC(=O)[C@H](CCC(=O)O)NC1=O [1, 12] | – | EC50 (TAP01 (MoG1K) antibody; [3]): 9.5 nM |
| 13.3 | C[C@H](NC(=O)[C@@H](N)CC(=O)O)C(=O)N[C@H]1CSCSC[C@@H](C(=O)N[C@@H](Cc2c[nH]cn2)C(=O)N[C@@H](Cc2c[nH]cn2)C(=O)O)NC(=O)[C@H](CCC(=O)O)NC(=O)[C@H](Cc2ccc(O)cc2)NC(=O)CNC(=O)[C@H](CO)NC(=O)[C@H](CC(=O)O)NC(=O)[C@H](Cc2c[nH]cn2)NC(=O)[C@H](CCCNC(=N)N)NC(=O)[C@H](Cc2ccccc2)NC1=O [Peptide 3, 12] | No binding | – |
| 1.56 | CC(C)[C@@H]1NC(=O)[C@H](CCC(=O)O)NC(=O)[C@H](Cc2ccc(O)cc2)NC(=O)CNC(=O)[C@H](CO)NC(=O)[C@H](CC(=O)O)NC(=O)[C@H](Cc2c[nH]cn2)NC(=O)[C@H](CCCNC(=N)N)NC(=O)[C@H](Cc2ccccc2)NC(=O)[C@H](CCC(=O)O)NC(=O)[C@@H](NC(=O)[C@@H](N)CC(=O)O)CSCSC[C@@H](C(=O)N[C@@H](Cc2c[nH]cn2)C(=O)O)NC1=O [Peptide 2, 13] | able to bind | binding to comparator antibody Bapineuzumab (Bapineuzumab; FIGS. 7, 22, 26, 34, listed as cyclic peptide 2, 13): Binding to the comparator antibody Bapineuzumab was seen |
| – | CC(C)[C@@H]1NC(=O)[C@H](CCC(=O)O)NC(=O)[C@H](Cc2ccc(O)cc2)NC(=O)CNC(=O)[C@H](CO)NC(=O)[C@H](CC(=O)O)NC(=O)[C@H](Cc2c[nH]cn2)NC(=O)[C@H](CCCNC(=N)N)NC(=O)[C@H](Cc2ccccc2)NC(=O)[C@H](CCC(=O)O)NC(=O)[C@H](C)NC(=O)[C@@H](N)CSCSC[C@@H](C(=O)N[C@@H](Cc2c[nH]cn2)C(=O)O)NC1=O [1, 13] | – | EC50 (TAP01 (MoG1K) antibody; [3]): 3.5 nM |
| – | CC(C)[C@@H]1NC(=O)[C@H](CCC(=O)O)NC(=O)[C@H](Cc2ccc(O)cc2)NC(=O)CNC(=O)[C@H](CO)NC(=O)[C@H](CC(=O)O)NC(=O)[C@H](Cc2c[nH]cn2)NC(=O)[C@H](CCCNC(=N)N)NC(=O)[C@H](Cc2ccccc2)NC(=O)[C@@H](NC(=O)[C@H](C)NC(=O)[C@@H](N)CC(=O)O)CSCSC[C@@H](C(=O)N[C@@H](Cc2c[nH]cn2)C(=O)O)NC1=O [3, 13] | – | EC50 (TAP01 (MoG1K) antibody; [3]): 5.41 nM |
| 79.7 | CC(C)[C@H](NC(=O)[C@@H]1CSCSC[C@H](NC(=O)[C@H](C)NC(=O)[C@@H](N)CC(=O)O)C(=O)N[C@@H](Cc2ccccc2)C(=O)N[C@@H](CCCNC(=N)N)C(=O)N[C@@H](Cc2c[nH]cn2)C(=O)N[C@@H](CC(=O)O)C(=O)N[C@@H](CO)C(=O)NCC(=O)N[C@@H](Cc2ccc(O)cc2)C(=O)N1)C(=O)N[C@@H](Cc1c[nH]cn1)C(=O)N[C@@H](Cc1c[nH]cn1)C(=O)O [3, 11] | – | – |
| – | C[C@@H]1NC(=O)[C@@H](N)CSCSC[C@@H](C(=O)N[C@@H](Cc2c[nH]cn2)C(=O)N[C@@H](Cc2c[nH]cn2)C(=O)O)NC(=O)[C@H](CCC(=O)O)NC(=O)[C@H](Cc2ccc(O)cc2)NC(=O)CNC(=O)[C@H](CO)NC(=O)[C@H](CC(=O)O)NC(=O)[C@H](Cc2c[nH]cn2)NC(=O)[C@H](CCCNC(=N)N)NC(=O)[C@H](Cc2ccccc2)NC(=O)[C@H](CCC(=O)O)NC1=O [Peptide 1, 12] | Binding to the comparator antibody Bapineuzumab was seen | EC50 (TAP01 (MoG1K) antibody; [1]): 9.5 nM |
| 0.24 | N=C(N)NCCC[C@@H]1NC(=O)[C@H](Cc2ccccc2)NC(=O)[C@H](CCC(=O)O)NC(=O)[C@@H](NC(=O)[C@@H](N)CC(=O)O)CSCSC[C@@H](C(=O)N[C@@H](Cc2c[nH]cn2)C(=O)N[C@@H](Cc2c[nH]cn2)C(=O)O)NC(=O)[C@H](CCC(=O)O)NC(=O)[C@H](Cc2ccc(O)cc2)NC(=O)CNC(=O)[C@H](CO)NC(=O)[C@H](CC(=O)O)NC(=O)[C@H](Cc2c[nH]cn2)NC1=O [Peptide 2, 12] | able to bind | binding to comparator antibody Bapineuzumab (Bapineuzumab; FIGS. 7, 22, 26, 34, listed as cyclic peptide 2, 12): Binding to the comparator antibody Bapineuzumab was seen |
